Measurements: US20250129135A1, “Multi-Agonist and Use Thereof” (priority 2021, published 2025)

Sequences of proteins named here, by UniProt entry; tags and fusion partners are left off. Residues count along the entry.
UniProt P43220, 24-463: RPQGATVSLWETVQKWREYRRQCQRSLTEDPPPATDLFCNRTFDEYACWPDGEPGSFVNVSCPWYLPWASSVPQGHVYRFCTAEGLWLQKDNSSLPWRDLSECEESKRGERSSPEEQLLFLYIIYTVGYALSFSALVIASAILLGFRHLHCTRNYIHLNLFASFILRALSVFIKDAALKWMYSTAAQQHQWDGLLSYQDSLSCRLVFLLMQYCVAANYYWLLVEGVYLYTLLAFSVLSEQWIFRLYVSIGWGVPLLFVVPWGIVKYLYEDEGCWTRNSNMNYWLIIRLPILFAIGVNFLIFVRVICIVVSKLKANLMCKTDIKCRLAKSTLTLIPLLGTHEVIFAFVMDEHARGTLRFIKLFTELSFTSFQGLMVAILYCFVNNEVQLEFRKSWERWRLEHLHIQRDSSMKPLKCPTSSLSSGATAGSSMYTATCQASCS
UniProt P47871, 26-477: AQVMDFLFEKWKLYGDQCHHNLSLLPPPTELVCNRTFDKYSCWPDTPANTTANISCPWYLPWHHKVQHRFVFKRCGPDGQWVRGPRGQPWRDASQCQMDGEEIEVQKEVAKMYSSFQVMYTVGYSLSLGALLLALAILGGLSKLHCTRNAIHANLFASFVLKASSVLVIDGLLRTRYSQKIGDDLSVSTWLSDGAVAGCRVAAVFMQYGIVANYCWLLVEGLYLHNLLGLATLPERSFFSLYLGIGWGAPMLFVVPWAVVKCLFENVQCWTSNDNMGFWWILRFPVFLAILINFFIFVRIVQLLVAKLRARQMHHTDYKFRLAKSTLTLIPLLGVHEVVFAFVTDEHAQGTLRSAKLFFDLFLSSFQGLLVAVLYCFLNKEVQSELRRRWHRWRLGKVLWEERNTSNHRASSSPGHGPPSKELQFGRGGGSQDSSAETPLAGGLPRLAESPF

Key:
[1] = biological target: Human GLP-1R (Homo sapiens, UniProt P43220); experiment: cAMP (HTRF) activity in HEK-293 cells stably overexpressing human GLP-1 receptor; format: cell-based; design: expressed in transfected cells; host or cells: HEK-293; settings: for Human GLP-1R Rel. A (Relative Activity): EC50 of human GLP-1 (7-37) / EC50 of compound
Method in brief: (§1)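 Cells in HBSS are exposed to compound for 60 min at room temperature, followed by 60 min with detection reagent. EC50 (nM) is taken from concentration-response curves.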

[2] = test system: RIN-m5F cells; format: cell-based, rat; settings: for EC50: cAMP, at least 3 independent tests, read-out: EC50 on RIN-m5F rat pancreatic islet tumor cells; for Rel. A (Relative Activity) on RIN-m5F: relative to GLP-1(7-37)
Method in brief: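 cAMP production measured in RIN-m5F cells resuspended in HBSS; compounds incubated 60 min at room temperature, then detection reagent added for a further 60 min before read-out.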

[3] = biological target: T1, Human GIP R (Homo sapiens, UniProt P48546); experiment: cAMP (HTRF) activity in CHO cells stably overexpressing GIP receptor; format: cell-based; settings: for Human GIP R Rel. A (Relative Activity): EC50 of human GIP / EC50 of compound
T1 construct: expressed in transfected cells; host or cells: CHO
T1 sequence (P48546 22-466): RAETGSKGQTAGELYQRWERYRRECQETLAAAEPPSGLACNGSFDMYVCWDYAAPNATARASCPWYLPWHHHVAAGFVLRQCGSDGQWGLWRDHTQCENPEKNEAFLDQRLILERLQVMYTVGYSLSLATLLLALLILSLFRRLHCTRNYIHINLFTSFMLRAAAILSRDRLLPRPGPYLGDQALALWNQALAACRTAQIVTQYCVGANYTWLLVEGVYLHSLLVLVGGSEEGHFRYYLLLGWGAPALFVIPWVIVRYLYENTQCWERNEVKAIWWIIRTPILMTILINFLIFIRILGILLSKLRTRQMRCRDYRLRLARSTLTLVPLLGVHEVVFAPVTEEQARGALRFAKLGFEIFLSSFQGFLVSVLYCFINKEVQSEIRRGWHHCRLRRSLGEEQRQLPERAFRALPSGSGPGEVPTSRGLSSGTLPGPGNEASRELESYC
Method in brief: as §1

[4] = biological target: T2, Human GCG R (Homo sapiens, UniProt P47871); experiment: cAMP (HTRF) activity in HEK-293 cells stably overexpressing human GCG receptor; format: cell-based; settings: for Human GCG R Rel. A (Relative Activity): EC50 of human GCG / EC50 of compound
T2 construct: expressed in transfected cells; host or cells: HEK-293
Method in brief: as §1

[5] = test system: 3T3-L1 adipocytes; settings: for EC50: read-out: EC50 on mouse 3T3-L1 adipocyte, cAMP, at least 3 independent tests; for Rel. A (Relative Activity) on 3T3-L1 adipocyte: relative to GIP
Method in brief: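 Mouse 3T3-L1 preadipocytes were differentiated with IBMX, dexamethasone and insulin for 5 days, then insulin plus 10 uM rosiglitazone for 3 days, then 10% FBS medium for 2–3 days. Mature adipocytes received 10-point, 3-fold compound dilutions for 60 min at room temperature. cAMP was read by kit detection reagent after a further 60 min, with concentration-effect curves fitted.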

[6] = test system: C57 BL/6J DIO mice; experiment: In vivo pharmacodynamics in high-fat diet induced obesity (DIO) mice; design: species or system mouse; settings: Mean±SEM; for Weight change: Table 6-1; for LDL-C / TC (total cholesterol) / TG (plasma triglycerides): Table 7-1
From the text: High-fat diet induced obesity (DIO) mice have characteristics such as obesity, elevated blood sugar, insulin resistance, and lipid abnormalities, all of which are very significant metabolic syndromes similar to a human body. The effects of the compounds of the present application on body weight, food intake, blood sugar, and lipids in C57 BL/6J DIO mice were studied.
Obesity was induced in mice by feeding with a high-fat diet (60 kcal % of calories from fat). […] After grouping, one animal was raised in each cage for one week, during which each of the animals was injected subcutaneously (S.C.) with a solvent (1×PBS, 5 ml/kg) to pre-adapt the experimental operation process.
After the preparation of animals, vehicle control or compounds were administered to groups of animals by subcutaneous injection, in which the compounds were dissolved in 1×PBS, the dosage was 5 ml/kg, and the administration operation was started at 9:00 am and conducted once every three days (Q3D) for 15 days. Throughout the entire experimental study, animal weight and food intake were measured daily before administration, and compared with initial weight and food intake of the same animal before administration to calculate a percentage change in animal weight (%) and cumulative food intake, so as to evaluate the impact of compounds on changes in body weight and food intake.
At the end point of the experiment (Day 15), the body weight of the mice was measured, and then fasting blood glucose was measured by taking blood from the tail tip of broken tail without anesthesia. After the blood collection, the animals were anesthetized with CO2 and euthanized. Then, blood was taken from the heart and plasma was separated by centrifugation. The plasma was used to measure total cholesterol (TC), low-density lipoprotein cholesterol (LDL-C), triglycerides (TG), and blood insulin content. The liver was separated for homogenization, and then centrifuged to obtain the supernatant for determining triglyceride content in the liver.
All results were expressed in Mean±SEM, and the results were analyzed by one-way ANOVA using GraphPad Prism 5 software, followed by Dunnett's post hoc test compared to the Vehicle control group. The difference at the p<0.05 level was considered statistically significant.

[7] = test system: human primary liver cells; format: cell-based; settings: for EC50: cAMP, at least 3 independent tests, read-out: EC50 on human primary liver cells; for Rel. A (Relative Activity) on human primary liver cells: relative to GCG
Method in brief: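 Human primary hepatocytes, thawed at 37° C and resuspended in HBSS, exposed to compound for 60 min at room temperature. Detection reagent then added for 60 min before cAMP readout.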

SMILES	Human GLP-1R Rel. A (Relative Activity) [1] [%]	EC50 [2] [nM]	Rel. A (Relative Activity) on RIN-m5F [2] [%]	Human GIP R Rel. A (Relative Activity) [3] [%]	Human GCG R Rel. A (Relative Activity) [4] [%]	EC50 [5] [nM]	Rel. A (Relative Activity) on 3T3-L1 adipocyte [5] [%]	EC50 [7] [nM]	Rel. A (Relative Activity) on human primary liver cells [7] [%]	further results
CC[C@H](C)[C@H](NC(=O)[C@H](Cc1ccccc1)NC(=O)[C@H](C)NC(=O)C(C)(C)NC(=O)[C@H](CCC(N)=O)NC(=O)[C@H](C)NC(=O)[C@H](CCCCNC(=O)COCCOCCNC(=O)COCCOCCNC(=O)CC[C@H](NC(=O)CCCCCCCCCCCCCCCCCCC(=O)O)C(=O)O)NC(=O)[C@H](CCCCN)NC(=O)[C@H](CC(=O)O)NC(=O)[C@H](CC(C)C)NC(=O)[C@](C)(CC(C)C)NC(=O)[C@@H](NC(=O)[C@H](CO)NC(=O)[C@H](Cc1ccc(O)cc1)NC(=O)[C@H](CC(=O)O)NC(=O)[C@H](CO)NC(=O)[C@@H](NC(=O)[C@](C)(Cc1ccccc1F)NC(=O)[C@@H](NC(=O)CNC(=O)[C@H](CCC(N)=O)NC(=O)C(C)(C)NC(=O)[C@@H](N)Cc1ccc(O)cc1)[C@@H](C)O)[C@@H](C)O)[C@@H](C)CC)C(=O)N[C@@H](CCC(=O)O)C(=O)N[C@@H](Cc1ccccc1)C(=O)N[C@@H](CC(C)C)C(=O)N[C@@H](CC(C)C)C(=O)N[C@@H](CCC(=O)O)C(=O)NC(C)(C)C(=O)N[C@@H](Cc1c[nH]cn1)C(=O)N1CCC[C@H]1C(=O)N[C@@H](CO)C(=O)N[C@@H](CO)C(=O)NCC(=O)N[C@@H](C)C(=O)N1CCC[C@H]1C(=O)N1CCC[C@H]1C(=O)N1CCC[C@H]1C(=O)N[C@@H](CO)C(N)=O [Compound 20]	440.00	0.267	386.52	3016.67	247.83	0.447	850.56	0.846	459.93	EC50 [1]: 0.01 nM; Liver TG ([6]; Table 9-1, 3 nmol/kg, Day 15): 26.7 ± 2.81 mg
CC[C@H](C)[C@H](NC(=O)[C@H](Cc1ccccc1)NC(=O)[C@H](C)NC(=O)C(C)(C)NC(=O)[C@H](CCC(N)=O)NC(=O)[C@H](C)NC(=O)[C@H](CCCCNC(=O)COCCOCCNC(=O)COCCOCCNC(=O)CC[C@H](NC(=O)CCCCCCCCCCCCCCCCCCC(=O)O)C(=O)O)NC(=O)[C@H](CCCCN)NC(=O)[C@H](CC(=O)O)NC(=O)[C@H](CC(C)C)NC(=O)[C@H](Cc1ccccc1)NC(=O)[C@@H](NC(=O)[C@H](CO)NC(=O)[C@H](Cc1ccc(O)cc1)NC(=O)[C@H](CC(=O)O)NC(=O)[C@H](CO)NC(=O)[C@@H](NC(=O)[C@](C)(Cc1ccccc1F)NC(=O)[C@@H](NC(=O)CNC(=O)[C@H](CCC(N)=O)NC(=O)C(C)(C)NC(=O)[C@@H](N)Cc1ccc(O)cc1)[C@@H](C)O)[C@@H](C)O)[C@@H](C)CC)C(=O)N[C@@H](CCC(=O)O)C(=O)N[C@@H](Cc1ccc(O)cc1)C(=O)N[C@@H](CC(C)C)C(=O)N[C@@H](CC(C)C)C(=O)N[C@@H](CCC(=O)O)C(=O)NCC(=O)NCC(=O)N1CCC[C@H]1C(=O)N[C@@H](CO)C(=O)N[C@@H](CO)C(=O)NCC(=O)N[C@@H](CCC(N)=O)C(=O)N1CCC[C@H]1C(=O)N1CCC[C@H]1C(=O)N1CCC[C@H]1C(=O)N[C@@H](CO)C(N)=O [Compound 21]	880.00	–	540.31	2262.50	228.00	–	173.69	–	782.90	Liver TG ([6]; Table 9-2, 3 nmol/kg, Day 15): 41.4 ± 6.33 mg
CC[C@H](C)[C@H](NC(=O)[C@H](Cc1ccccc1)NC(=O)[C@H](C)NC(=O)C(C)(C)NC(=O)[C@H](CCC(N)=O)NC(=O)[C@H](C)NC(=O)[C@H](CCCCNC(=O)COCCOCCNC(=O)COCCOCCNC(=O)CC[C@H](NC(=O)CCCCCCCCCCCCCCCCCCC(=O)O)C(=O)O)NC(=O)[C@H](CCCCN)NC(=O)[C@H](CC(=O)O)NC(=O)[C@H](CC(C)C)NC(=O)[C@](C)(CC(C)C)NC(=O)[C@@H](NC(=O)[C@H](CO)NC(=O)[C@H](Cc1ccc(O)cc1)NC(=O)[C@H](CC(=O)O)NC(=O)[C@H](CO)NC(=O)[C@@H](NC(=O)[C@](C)(Cc1ccccc1F)NC(=O)[C@@H](NC(=O)CNC(=O)[C@H](CCC(N)=O)NC(=O)C(C)(C)NC(=O)[C@@H](N)Cc1ccc(O)cc1)[C@@H](C)O)[C@@H](C)O)[C@@H](C)CC)C(=O)N[C@@H](CCC(=O)O)C(=O)N[C@@H](Cc1ccccc1)C(=O)N[C@@H](CC(C)C)C(=O)N[C@@H](CC(C)C)C(=O)N[C@@H](CCC(=O)O)C(=O)NCC(=O)NCC(=O)N1CCC[C@H]1C(=O)N[C@@H](CO)C(=O)N[C@@H](CO)C(=O)NCC(=O)N[C@@H](CCC(N)=O)C(=O)N1CCC[C@H]1C(=O)N1CCC[C@H]1C(=O)N1CCC[C@H]1C(=O)N[C@@H](CO)C(N)=O [Compound 22]	733.33	0.119	867.23	2585.71	335.29	0.475	800.42	0.654	594.95	EC50 [3]: 0.007 nM; EC50 [4]: 0.017 nM; Weight change ([6]; 3 nmol/kg s.c. Q3D for 15 days): −20.3 ± 1.54%; Weight change ([6]; 10 nmol/kg s.c. Q3D for 15 days): −28.9 ± 2.28%; Weight change ([6]; 30 nmol/kg s.c. Q3D for 15 days): −50.5 ± 1.45%; LDL-C ([6]; 3 nmol/kg, Day 15): 0.63 ± 0.070 mM; TC (total cholesterol) ([6]; 3 nmol/kg, Day 15): 3.77 ± 0.353 mM; TG (plasma triglycerides) ([6]; 3 nmol/kg, Day 15): 0.84 ± 0.051 mM; LDL-C ([6]; 30 nmol/kg, Day 15): 0.48 ± 0.047 mM; TC (total cholesterol) ([6]; 30 nmol/kg, Day 15): 2.46 ± 0.076 mM; TG (plasma triglycerides) ([6]; 30 nmol/kg, Day 15): 0.59 ± 0.075 mM; Blood sugar (fasting blood glucose) ([6]; Table 8-1, 3 nmol/kg, Day 15): 99.4 ± 5.65 mg/dL; Insulin (blood) ([6]; Table 8-1, 3 nmol/kg, Day 15): 24.7 ± 7.45 mIU/L
